Laboratory results from patent publication US20060151574A1, “Formulations useful against hepatitis C virus infections” (priority 2002, published 2006).

Tested on: replicon cells
Experiment: Cytotoxic effects on replicon cells

SMILES: CC1=C(/C=C/C(C)=C/C=C/C(C)=C/C(=O)O)C(C)(C)CCC1 [ATRA, all trans retinoic acid]
- Severe cytotoxic effects (all trans retinoic acid and sodium selenite in combination): neither observed
- Severe cytotoxic effects (substance alone): neither observed
